Assay results published in ChEMBL document CHEMBL4014283, “Structural insights of SmKDAC8 inhibitors: Targeting Schistosoma epigenetics through a combined structure-based 3D QSAR, in vitro and synthesis strategy” (Bioorg Med Chem, 2017).

Target: T1, Histone deacetylase 8 (Schistosoma mansoni, UniProt A5H660)
T1 sequence (A5H660 whole entry): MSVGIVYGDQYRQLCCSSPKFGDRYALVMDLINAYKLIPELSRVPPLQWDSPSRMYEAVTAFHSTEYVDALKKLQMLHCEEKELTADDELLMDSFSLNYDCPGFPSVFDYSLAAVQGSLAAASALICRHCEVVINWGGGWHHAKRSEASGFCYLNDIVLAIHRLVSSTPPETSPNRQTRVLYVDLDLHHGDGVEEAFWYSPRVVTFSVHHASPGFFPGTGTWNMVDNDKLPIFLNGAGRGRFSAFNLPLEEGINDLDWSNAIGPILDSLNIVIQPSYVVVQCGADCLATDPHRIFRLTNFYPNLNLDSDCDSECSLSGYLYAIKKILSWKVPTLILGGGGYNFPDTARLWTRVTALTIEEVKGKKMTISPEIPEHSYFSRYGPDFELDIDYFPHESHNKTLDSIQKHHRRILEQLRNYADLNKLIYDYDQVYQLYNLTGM
Experiment: Inhibition of Schistosoma mansoni KDAC8 using (FAM)-labeled peptide as substrate after 60 mins by microfluidic assay

`O=C(O)CCCCN1C(=O)[C@H](CCC(=O)NC(c2ccccc2)(c2ccccc2)c2ccccc2)N=C(c2ccccc2)c2ccccc21` was tested, and the IC50 was greater than 30 µM.
